Here are results for one substance from US20200377588A1, “Highly Versatile Method of Presenting Cyclic Peptide on Protein Structure” (The University of Tokyo, priority 2017, published 2020).

In one test the target is T1, Met-PA (Homo sapiens, UniProt P08581).
T1 construct: made in house; host or cells: Expi293F cells (secreted, culture supernatant)
Nature of the test: pull-down type binding experiment, Met-PA captured on NZ-1 Sepharose, SDS-PAGE. As to conditions: Example 4, HSA mutants, FIG. 17.

A further test concerns the target T2, Plexin B1-Fc (Homo sapiens, UniProt O43157).
T2 construct: Protein A Sepharose that had captured a soluble receptor fragment Plexin B1-Fc therein
T2 sequence (O43157 20-1490 limits assumed): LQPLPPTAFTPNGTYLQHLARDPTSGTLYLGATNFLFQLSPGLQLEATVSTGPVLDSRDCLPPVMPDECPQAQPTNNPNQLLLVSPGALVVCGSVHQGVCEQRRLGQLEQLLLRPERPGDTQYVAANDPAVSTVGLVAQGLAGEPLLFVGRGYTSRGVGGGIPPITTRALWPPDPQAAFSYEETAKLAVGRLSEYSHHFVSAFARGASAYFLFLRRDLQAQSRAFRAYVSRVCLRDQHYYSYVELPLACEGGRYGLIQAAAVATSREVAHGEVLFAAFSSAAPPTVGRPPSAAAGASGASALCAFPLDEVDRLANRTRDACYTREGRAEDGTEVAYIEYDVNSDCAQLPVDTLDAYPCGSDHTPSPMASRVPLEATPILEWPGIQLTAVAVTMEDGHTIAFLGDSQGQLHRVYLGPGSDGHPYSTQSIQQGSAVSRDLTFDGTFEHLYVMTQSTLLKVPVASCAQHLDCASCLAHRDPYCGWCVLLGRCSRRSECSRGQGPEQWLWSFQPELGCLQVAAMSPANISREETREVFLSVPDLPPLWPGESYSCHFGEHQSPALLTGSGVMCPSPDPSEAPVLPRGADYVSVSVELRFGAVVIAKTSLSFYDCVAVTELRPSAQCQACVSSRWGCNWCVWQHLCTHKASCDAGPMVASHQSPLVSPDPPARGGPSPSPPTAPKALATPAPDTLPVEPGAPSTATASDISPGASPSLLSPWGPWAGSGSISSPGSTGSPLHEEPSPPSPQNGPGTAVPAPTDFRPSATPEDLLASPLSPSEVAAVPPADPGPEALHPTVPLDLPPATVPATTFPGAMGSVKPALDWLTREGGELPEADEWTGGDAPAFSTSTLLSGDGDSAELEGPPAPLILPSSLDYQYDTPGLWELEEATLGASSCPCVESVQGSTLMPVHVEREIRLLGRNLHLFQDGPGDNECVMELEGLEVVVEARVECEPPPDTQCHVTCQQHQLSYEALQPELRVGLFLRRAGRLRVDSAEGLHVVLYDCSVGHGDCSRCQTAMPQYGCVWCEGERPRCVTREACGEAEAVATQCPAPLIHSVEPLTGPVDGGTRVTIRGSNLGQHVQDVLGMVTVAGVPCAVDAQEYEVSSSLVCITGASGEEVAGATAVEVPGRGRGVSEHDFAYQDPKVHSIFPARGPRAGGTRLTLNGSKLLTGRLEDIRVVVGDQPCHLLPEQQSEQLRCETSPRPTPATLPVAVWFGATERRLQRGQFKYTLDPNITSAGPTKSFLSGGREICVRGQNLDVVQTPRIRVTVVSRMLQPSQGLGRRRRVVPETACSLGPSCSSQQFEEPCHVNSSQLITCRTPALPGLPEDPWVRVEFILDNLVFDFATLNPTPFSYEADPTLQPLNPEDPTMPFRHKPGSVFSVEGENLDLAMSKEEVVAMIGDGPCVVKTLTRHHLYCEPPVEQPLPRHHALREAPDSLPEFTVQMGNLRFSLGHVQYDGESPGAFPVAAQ
Nature of the test: pulldown, Plexin B1-Fc captured on protein A-Sepharose, SDS-PAGE. It counts as binding. The settings on record: Example 4, HSA mutants, FIG. 17. From the text:
Binding of the resulting cyclic peptide fusion proteins (HSA mutants) to a soluble receptor fragment of Plexin B1 or Met was confirmed by the method described above in Example 1. It is to be noted, however, that for the mP6-9 peptide fusion protein, not Plexin B1-PA but Plexin B1-Fc protein was used as a binding molecule and as pulldown beads, not NZ-1-Sepharose but protein A-Sepharose was used.
Binding of the resulting cyclic peptide fusion protein (RBP mutant) to Protein A Sepharose that had captured a soluble receptor fragment Plexin B1-Fc therein by a method similar to that described above was studied by the pulldown method.
Binding of the resulting cyclic peptide fusion protein (PLAP mutant) to Protein A Sepharose that had captured a soluble receptor fragment Plexin B1-Fc or Met-Fc therein by the method described above I Example 1 was studied by the pulldown method.

As to “HSA: full-length human serum albumin with Hisx8 and Myc tags, no cyclic peptide fused; control”, the “binding to Met-PA (pulldown)” value in the test with Met-PA is on record as “does not bind to the binding molecule”. Also, the “binding to Plexin B1-Fc (pulldown)” value with Plexin B1-Fc is “does not bind to the binding molecule”.
